In patent publication US11433053B2, “LSD1 inhibitor and preparation method and application thereof” (CSPC ZHONGQI PHARMACEUTICAL TECHNOLOGY (SHIJIAZHUANG) CO., …, priority 2017, dated 2022):

Assays:
H1417 cells = assay: Cell proliferation inhibitory activity on H1417 cells (CellTiter-Glo, 10 days)
Method: Experimental purposes: To test the proliferation inhibitory activities of the test compounds on H1417 cells.
Experimental materials: RPMI 1640 medium, fetal bovine serum, Promega CellTiter-Glo reagent. The H1417 cell line purchased from ATCC. Envision Multi-Label Analyzer (PerkinElmer).
Experimental method: H1417 cells were seeded in a black 384-well plate, 1000 cells per well in […] of cell suspension. The test compounds were diluted 3-fold with Epmotion to the 10th concentration i.e, the compounds were diluted from 10 mmol to […], and a double duplicate well experiment was set. 198 μL medium was added to the middle plate, according to the corresponding position, 2 μL gradient diluted compounds were added to the middle plate. The mixture was mixed evenly and transferred 20 μL per well to the cell plates. The cell plates were incubated in a carbon dioxide incubator for 10 days. 25 μL of Promega CellTiter-Glo reagent per well was added to the cell plate and the mixture was incubated for 10 minutes at room temperature to stabilize the luminescence signal. Readings were performed by PerkinElmer Envision multi-label analyzer.
Data analysis: The original data was converted to the inhibition rate by the equation (Max-Ratio)/(Max-Min)*100%, and the value of IC50 can be obtained by curve fitting with four parameters. (Model 205 in XLFIT5, iDBS) […]

human LSD1 = human LSD1 (Homo sapiens (Human), UniProt O60341); assay: Evaluation of enzyme activity: LSD1 fluorescence coupling enzyme assay (HRP/Amplex Red); settings: human LSD1, histone H3(1-21)K4me2 peptide 10 μM, 30 min pre-incubation
Method: The purpose of this test is to test the in vitro inhibitory activities of the compounds against LSD1. The enzyme used in this experiment was human LSD1, and the standard substrate was histone H3(1-21)K4me2 peptide (10 μM). HCI-2509 (SP2509) was used as reference compound, and the fluorescence coupling enzyme assay was employed. The production of FAD-dependent H2O2 as a result of demethylase activity of LSD1 was measured by coupling with HRP and Amplex Red. Compounds as well as control compound HCl-2509 were tested in 10-dose IC50 mode with a 3-fold serial dilution in duplicate starting at 10 μm. All compounds were pre-incubated 30 mins with enzyme before added substrate to start reaction. Fluorescence measurement: Ex/Em=535/590 by EnVision.
The test compound's inhibitory activities against LSD11 was classified as: + for IC50≤50 nM; ++ for IC50>50 nM and ≤100 nM; +++ for IC50>100 nM and ≤500 nM, and the results are shown in Table 1.

With N#Cc1ccc(-c2cc(C3(CN[C@H]4C[C@@H]4c4ccccc4)CC3)no2)cc1 the IC50 (H1417 cells; 10 days incubation) was < 100 nM, the “Maximum inhibition percentage (%)” value (H1417 cells; highest percentage inhibition of cell viability) was “C (70%>C≥50%)” and the IC50 (human LSD1) was < 50 nM.
